scFv variants of Ab-14 (heavy chain) against a SARS-CoV-2 spike peptide

From the AlphaSeq antibody data of Engelhart et al. 2022 (doi:10.1038/s41597-022-01779-4), copy in the FLAb collection.

The target is the same throughout: PDVDLGDISGINAS, from the HR2 region of SARS-CoV-2 spike.

Parent scFv Ab-14: VH joined to VL by the linker GGGGSGGGGSGGGGS. Changes lie in the heavy chain CDRs alone.
VH: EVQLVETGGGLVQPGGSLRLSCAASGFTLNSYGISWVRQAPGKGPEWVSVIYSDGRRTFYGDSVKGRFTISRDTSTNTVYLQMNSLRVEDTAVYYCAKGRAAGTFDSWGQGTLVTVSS
VL: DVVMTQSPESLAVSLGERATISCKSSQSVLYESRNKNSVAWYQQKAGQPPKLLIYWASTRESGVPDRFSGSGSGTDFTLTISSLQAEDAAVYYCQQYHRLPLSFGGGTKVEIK

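Library AAYL49 holds single substitutions and randomly drawn double and triple substitutions in the CDRs. The scFvs were displayed on barcoded MATa yeast, the peptide on MATalpha yeast. The frequency of each diploid, read from paired DNA barcodes, reflects how well the two displayed proteins bind. Read counts were normalised to the haploid input and turned into Kd by a linear fit to BCL2-family pairs of known affinity, for each replicate. Mating was done three times.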

Substitutions are numbered in sequence along the VH above, starting at 1 (not Kabat). Affinities are written as log10 Kd with Kd in nM; a lower number is a better binder. "nd" marks a missing value. The strain was present, yet no cells mated with the target were sequenced in that replicate, which points to weak or no binding. Nonspecific signal, from three strains lacking the peptide, appeared in 15% of pairings of library AAYL49, centred on 4.06 (5% of these signals below 2.83); values are not corrected for it. For each scFv, signals with the empty controls are counted beside the result, with their mean in brackets.

| # | changes | log10 Kd (nM) by replicate | control signals |
|---|---|---|---|
| 1 | G33R+S53M | nd nd nd | 0/9 |
| 2 | T28V+R57N+D106V | nd nd nd | 1/9 (3.04) |
| 3 | N30G+R57A+S107W | nd nd 5.29 | 3/9 (3.49) |
| 4 | S35Y+R100N | nd nd 5.24 | 2/9 (3.84) |
| 5 | F27L+G103L+S107G | 2.23 2.38 2.78 | 1/9 (3.81) |
| 6 | G26A+T28H+R57F | nd nd nd | 1/9 (3.43) |
| 7 | Y32H+I34E+G103D | nd nd nd | 0/9 |
| 8 | S35W+D54V+G55C | nd nd nd | 0/9 |
| 9 | F27H+D54V+R56Q | nd nd nd | 0/9 |
| 10 | S63M+R100V+G103M | 5.40 nd nd | 3/9 (4.12) |
| 11 | Y32N+A102F+G103M | 1.67 1.85 1.50 | 3/9 (4.18) |
| 12 | F27H+Y32H+D54M | nd nd nd | 0/9 |
| 13 | G61Q+D62T | 1.76 2.39 2.25 | 0/9 |
| 14 | Y52G+G55M+A102K | nd nd nd | 0/9 |
| 15 | G33F+Y52E+D62E | nd nd nd | 0/9 |
| 16 | T28H+D54S+V64D | nd nd nd | 1/9 (4.46) |
| 17 | V64L+G103F | 5.07 4.18 nd | 3/9 (4.42) |
| 18 | S53F+F59R+T104F | nd nd nd | 0/9 |
| 19 | I34S+S35L | nd nd nd | 0/9 |
| 20 | I51K+T104L+F105N | nd nd nd | 0/9 |
| 21 | L29N+G55S+F105P | 4.91 nd 4.79 | 2/9 (3.62) |
| 22 | G61T+A102S+T104D | 1.12 1.36 1.28 | 1/9 (4.22) |
| 23 | R57I+K65M | nd nd nd | 1/9 (2.89) |
| 24 | T28R+Y52P+R100E | nd nd 3.84 | 1/9 (3.57) |
| 25 | G26D+F59P+V64Y | nd nd 5.24 | 1/9 (3.70) |
| 26 | S35C+A102D | nd nd nd | 1/9 (3.38) |
| 27 | V50T+I51F | nd nd nd | 1/9 (3.36) |
| 28 | Y52S+G99S+D106S | 6.12 nd 4.11 | 4/9 (4.52) |
| 29 | V50S+G61V+S63M | nd 2.71 nd | 1/9 (3.95) |
| 30 | G33W+D54C+R100V | nd nd nd | 1/9 (2.78) |
| 31 | T28C+G33A+I34T | nd 4.37 nd | 3/9 (3.65) |
| 32 | I34E+S53I+S107M | nd nd nd | 5/9 (4.63) |
| 33 | L29T+G55C+K65A | nd nd nd | 0/9 |
| 34 | T58K+G103M+S107C | nd nd nd | 1/9 (3.81) |
| 35 | I34G+I51W+D62K | nd 3.88 nd | 3/9 (3.77) |
| 36 | Y60R+R100I | nd nd nd | 0/9 |
| 37 | G26V+L29V+I34Q | nd nd nd | 1/9 (3.86) |
| 38 | F59T+S63Q+G103K | 1.92 nd 1.77 | 0/9 |
| 39 | I34R+R56F+A101F | nd 4.04 nd | 4/9 (4.93) |
| 40 | T28V+I34W+F59H | 3.11 4.58 3.36 | 1/9 (4.08) |

The opening 3 entries, copied out:

changes	log10 Kd (nM) by replicate	control signals
G33R+S53M	nd nd nd	0/9
T28V+R57N+D106V	nd nd nd	1/9 (3.04)
N30G+R57A+S107W	nd nd 5.29	3/9 (3.49)